Laboratory results taken from US11390613B2, “Azole analogues and methods of use thereof” (UNIVERSITY OF CONNECTICUT, priority 2017, dated 2022).
pIC50: −log10 of the molar value. In brackets after ≈: the same amount, converted by molar mass.

Protein sequences, listed by entry. Tags and fused reporters are not part of them.
UniProt Q9UNQ0, whole entry: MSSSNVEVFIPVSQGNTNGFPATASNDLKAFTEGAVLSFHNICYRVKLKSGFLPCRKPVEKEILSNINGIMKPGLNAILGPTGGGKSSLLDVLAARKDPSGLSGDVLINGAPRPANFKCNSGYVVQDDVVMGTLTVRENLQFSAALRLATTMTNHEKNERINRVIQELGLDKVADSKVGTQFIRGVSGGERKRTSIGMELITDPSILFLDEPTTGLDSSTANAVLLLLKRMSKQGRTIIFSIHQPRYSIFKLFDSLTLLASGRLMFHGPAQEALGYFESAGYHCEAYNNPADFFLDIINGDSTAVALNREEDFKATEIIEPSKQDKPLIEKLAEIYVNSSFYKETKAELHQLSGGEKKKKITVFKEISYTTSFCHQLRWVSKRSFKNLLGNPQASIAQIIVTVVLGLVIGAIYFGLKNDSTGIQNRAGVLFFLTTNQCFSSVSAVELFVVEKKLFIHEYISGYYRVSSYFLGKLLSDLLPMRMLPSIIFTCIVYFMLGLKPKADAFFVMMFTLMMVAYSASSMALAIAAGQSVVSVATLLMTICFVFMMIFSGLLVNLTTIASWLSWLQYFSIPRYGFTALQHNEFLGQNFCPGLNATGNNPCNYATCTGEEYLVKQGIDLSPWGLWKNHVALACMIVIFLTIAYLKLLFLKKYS
UniProt P08183, whole entry: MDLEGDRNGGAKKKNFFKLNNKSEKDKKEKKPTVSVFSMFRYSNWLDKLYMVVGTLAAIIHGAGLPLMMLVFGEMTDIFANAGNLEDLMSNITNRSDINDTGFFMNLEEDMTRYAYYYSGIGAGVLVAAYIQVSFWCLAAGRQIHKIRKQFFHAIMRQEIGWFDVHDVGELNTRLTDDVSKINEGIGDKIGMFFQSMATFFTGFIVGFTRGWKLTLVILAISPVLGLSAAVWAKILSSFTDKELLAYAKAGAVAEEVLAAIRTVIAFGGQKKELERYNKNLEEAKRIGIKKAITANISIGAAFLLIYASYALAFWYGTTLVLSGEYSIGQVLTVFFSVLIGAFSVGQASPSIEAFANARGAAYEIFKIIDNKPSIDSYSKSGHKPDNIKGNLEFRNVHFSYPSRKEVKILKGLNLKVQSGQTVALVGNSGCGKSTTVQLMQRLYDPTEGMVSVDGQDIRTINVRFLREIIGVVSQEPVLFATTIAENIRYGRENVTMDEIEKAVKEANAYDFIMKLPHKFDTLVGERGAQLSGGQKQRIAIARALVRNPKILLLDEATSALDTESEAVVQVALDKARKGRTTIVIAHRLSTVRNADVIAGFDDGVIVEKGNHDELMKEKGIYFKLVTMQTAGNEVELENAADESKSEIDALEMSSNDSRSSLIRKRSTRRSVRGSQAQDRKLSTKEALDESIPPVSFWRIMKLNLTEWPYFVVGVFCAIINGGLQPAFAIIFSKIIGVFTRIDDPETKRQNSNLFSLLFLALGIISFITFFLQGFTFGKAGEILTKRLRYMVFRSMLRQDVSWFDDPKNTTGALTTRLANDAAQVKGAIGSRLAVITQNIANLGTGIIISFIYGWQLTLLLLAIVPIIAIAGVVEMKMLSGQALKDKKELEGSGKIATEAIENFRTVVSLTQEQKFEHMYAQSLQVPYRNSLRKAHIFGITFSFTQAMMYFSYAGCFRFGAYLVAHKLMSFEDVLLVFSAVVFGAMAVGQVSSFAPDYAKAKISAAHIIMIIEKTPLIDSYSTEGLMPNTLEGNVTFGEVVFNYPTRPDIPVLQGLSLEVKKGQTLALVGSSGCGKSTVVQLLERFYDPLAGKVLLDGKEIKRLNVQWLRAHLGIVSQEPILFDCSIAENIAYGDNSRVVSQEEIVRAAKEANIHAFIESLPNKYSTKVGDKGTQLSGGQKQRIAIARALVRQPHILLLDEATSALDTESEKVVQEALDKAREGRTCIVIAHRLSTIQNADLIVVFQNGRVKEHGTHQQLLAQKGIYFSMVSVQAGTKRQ
UniProt P08684, whole entry: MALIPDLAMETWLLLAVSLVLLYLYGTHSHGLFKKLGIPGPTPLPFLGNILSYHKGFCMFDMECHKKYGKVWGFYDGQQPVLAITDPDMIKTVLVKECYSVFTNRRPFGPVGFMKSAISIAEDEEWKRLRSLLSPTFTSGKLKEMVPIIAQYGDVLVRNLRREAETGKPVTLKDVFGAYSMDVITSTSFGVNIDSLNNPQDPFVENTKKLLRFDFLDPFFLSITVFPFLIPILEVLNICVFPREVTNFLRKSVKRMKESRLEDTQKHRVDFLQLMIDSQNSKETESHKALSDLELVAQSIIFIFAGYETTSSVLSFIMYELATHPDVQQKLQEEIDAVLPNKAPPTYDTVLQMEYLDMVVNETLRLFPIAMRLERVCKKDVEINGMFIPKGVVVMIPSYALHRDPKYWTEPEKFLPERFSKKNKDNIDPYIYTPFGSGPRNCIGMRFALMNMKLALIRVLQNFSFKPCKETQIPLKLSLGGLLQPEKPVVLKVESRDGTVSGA

Assays:
[1] = Parallel artificial membrane permeability assay (PAMPA); conditions: passive permeability
BCRP = BCRP (Homo sapiens, UniProt Q9UNQ0); assay: BCRP efflux; conditions: Table 9
P-glycoprotein (P-gp) = P-glycoprotein (P-gp) (Homo sapiens, UniProt P08183); assay: P-glycoprotein (P-gp) efflux; conditions: Table 9
CYP3A4 = CYP3A4 (Homo sapiens, UniProt P08684); assay: CYP3A4 inhibition; conditions: read-out: CYP3A4; Table 9

Solubility (Solubility)	PAMPA [1]	BCRP (BCRP)	P-gp (P-glycoprotein (P-gp))	pIC50 (CYP3A4)	SMILES
1.56 µM (≈ 0.996 µg/mL)	Poor	No	No	–	CC[C@@H](C)n1ncn(-c2ccc(N3CCN(c4ccc(OC[C@@H]5CO[C@@](C)(c6ccc(Cl)cc6Cl)O5)cc4)CC3)cc2)c1=O
0.8 µM (≈ 0.511 µg/mL)	Poor	No	No	< 4.70	CC[C@@H](C)n1ncn(-c2ccc(N3CCN(c4ccc(OC[C@@H]5CO[C@](C)(c6ccc(Cl)cc6Cl)O5)cc4)CC3)cc2)c1=O
